Here are results for 34 compounds from PubChem BioAssay AID1259415 (National Center for Advancing Translational Sciences (NCATS), 2018).

The entries are a selection whose mix differs from that of the whole data set. Some tests of the compounds listed are not included; inactive here does not mean inactive elsewhere. Results filed as inconclusive are left out. Active and inactive are the calls of the source. No stated cut-off is given here; in the data, active means activity change below about -60%; inconclusive means no clear call, values can overlap the other calls; inactive means above about -39%.
On the % scale 0 is the no-effect control and ±100 the full control effect.

A short description of this assay: qHTS Assay for inhibitors of the human cytomegalovirus (HCMV). The conditions noted are these: HFF cells, HCMV-luciferase reporter, 72 h; at 57.5 µM; hits give low values. The source says: NCGC Assay Overview: Infection with human cytomegalovirus (HCMV) continues to pose significant threats for pregnant women and immunocompromised hosts. HCMV causes serious morbidity and mortality in transplant recipients, and congenital HCMV is the leading infectious cause of mental retardation and deafness in children. In the 1990s, the annual costs associated with the disease burden of congenital CMV were estimated at around $2 billion. A HCMV vaccine is not available yet and HCMV therapies result in intolerable side effects and emergence of drug resistant viruses. […] Towards this goal we have developed and characterized a luciferase HCMV reporter that was initially used in 96 well plates and then optimized to 1536-well plates for utilization in screening of the MLSMR collection, the NGCG diversity collection and the NCGC Pharmaceutical Collection of approved and investigational drugs.
NCGC Assay Protocol Summary:
This is a cell-based assay for HCMV inhibition in HFFs cells. The screening used 2 compound doses and the HCMV-luciferase at MOI of 1 PFU/cell. Cells were treated and infected with HCMV. At 72 h post infection cell lysates were collected and luciferase activity was determined using the Glomax-Multi + Detection System (Promega, Madison, WI). Data were normalized to the controls for basal activity (buffer only) and known HCMV inhibitors Salinmoycin.
1536-well assay protocol for the assay:
(1) Add 3 ul CMV/HFF cell culture. 1000 cells/well in DMEM nirmal media.
(2) Incubate 16 hr at 37C.
(3) Add 23 nl control compound, 10uM of Salinomycin.
(4) Add 23 nl compounds in DMSO solution.
(5) Add 3 ul CMV suspension. Final 1 puf/ul, Virus stock 2000pfu/ul
(6) Incubate 72 hrs at 37C.
(7) Add 4 ul OneGlo Luc Reagent.
(8) Incubate 5 min at room temperature.
On the technique in general: Quantitative high-throughput screening tests each substance at several concentrations.
Take `CCCCOc1ccccc1C(=O)NCC1(N(C)C)CCCCC1`: the activity change, negative = inhibition is inactive: -26.2%.
With `CN(C)C1(CNC(=O)c2ccccc2[N+](=O)[O-])CCCCC1` the figure was inactive: 6.29%.
As to `Cc1ccccc1C(=O)NCC1(N2CCCCC2)CCCCC1`, the activity change, negative = inhibition is inactive: -20.6%.
The value for `CN(C)C1CCCC1OC(=O)C(O)(c1ccccc1)c1ccccc1` (centres undefined) was inactive: 10.9%.
Turning to `CN(C)c1ccc(C(=O)NCC2(N(C)C)CCCCC2)cc1`, the activity change, negative = inhibition is inactive: 14.4%.
`Cc1cc(C(=O)NCC2(N3CCCCC3)CCCCC2)ccc1[N+](=O)[O-]`: the activity change, negative = inhibition is inactive: 14.5%.
Turning to `CCN1CCCC(OC(=O)C2(O)c3ccccc3C=Cc3ccccc32)C1` (centres undefined), the activity change, negative = inhibition is inactive: -9.91%.
The value for `COc1ccc(C(=O)NCC2(N(C)C)CCCCC2)cc1` was inactive: -33%; that for `CCOc1cccc(C(=O)NCC2(N(C)C)CCCCC2)c1` was inactive: 4.75%; that for `C=CCN1CCN(CCOC(=O)C(O)(c2ccccc2)c2ccccc2)CC1` was inactive: -32.9%.
Turning to `O=C(NCC1(N2CCCCC2)CCCCC1)c1cc(F)c(F)cc1Cl`, the activity change, negative = inhibition is inactive: -17.9%.
In the case of `CN1[C@@H]2CC[C@H]1CC(OC(=O)C(O)(c1ccccc1)c1ccccc1)C2` (some centres undefined), the activity change, negative = inhibition was inactive: 24.4%.
In the case of `O=C(NCC1(N2CCCCC2)CCCCC1)c1cc([N+](=O)[O-])ccc1Cl`, the activity change, negative = inhibition was inactive: -32%.
`CN(C)C1(CNC(=O)c2ccccc2F)CCCCC1`: the activity change, negative = inhibition is inactive: 14.8%.
`Cc1ccc(C(=O)NCC2(N3CCCCC3)CCCCC2)cc1`: the activity change, negative = inhibition was inactive: -4.65%.
For the compound `CC(C)N1C(=O)CC2(CCN(CCOC(=O)C(O)(c3ccccc3)c3ccccc3)CC2)C1=O`, the activity change, negative = inhibition was inactive: -26.6%.
With `CN(C)C1(CNC(=O)c2cccc(Cl)c2)CCCCC1` the figure was inactive: -7.37%; with `CCN(CC)CC(C)C(C)OC(=O)C(O)(c1ccccc1)c1ccccc1` (centres undefined), inactive: -20.5%.
The value for `COc1cc(SC)ccc1C(=O)NCC1(N(C)C)CCCCC1` was inactive: 40.8%; that for `CC(C)COc1ccc(C(=O)NCC2(N(C)C)CCCCC2)cc1` was inactive: -24.1%.
On to `O=C(OC1CN2CCC1CC2)C(CO)(c1ccccc1)c1ccccc1` (centres undefined), for which the activity change, negative = inhibition was inactive: -9.3%.
Regarding `COc1cccc(C(=O)NCC2(N3CCOCC3)CCCCC2)c1`, the activity change, negative = inhibition was inactive: 27.1%.
For the compound `CN(C)c1cccc(C(=O)NCC2(N(C)C)CCCCC2)c1`, the activity change, negative = inhibition is inactive: -6.81%.
The value for `O=C(OCCN1CCCC1)C(O)(c1ccccc1)c1ccccc1` was inactive: -19.5%.
Regarding `COc1cc(C(=O)NCC2(N(C)C)CCCCC2)cc(OC)c1OC`, the activity change, negative = inhibition is inactive: 20.1%.
As for `Cc1cccc(C(=O)NCC2(N(C)C)CCCCC2)c1`, the activity change, negative = inhibition is inactive: 4.88%.
With `COc1ccc(Br)c(C(=O)NCC2(N3CCCCC3)CCCCC2)c1` the figure was inactive: -32.8%; with `C=C(C)C#CC(O)(C(=O)OC1CCN(C)CC1)c1ccccc1` (centres undefined), inactive: 5.81%.
With `COc1cc(C(=O)NCC2(N(C)C)CCCCC2)c([N+](=O)[O-])cc1OC` the figure was inactive: -34.6%; with `CN(C)C1(CNC(=O)c2ccc(Br)cc2)CCCCC1`, inactive: -34.3%.
Regarding `O=C(NCC1(N2CCCCC2)CCCCC1)c1cccc(Cl)c1`, the activity change, negative = inhibition was inactive: -7.18%.
With `COc1ccc(C(=O)NCC2(N(C)C)CCCCC2)cc1Cl` the figure was inactive: -8.62%; with `COc1cccc(C(=O)NCC2(N3CCCCC3)CCCCC2)c1`, inactive: 12.1%; with `COc1ccc(Cl)cc1C(=O)NCC1(N(C)C)CCCCC1`, inactive: 14.3%.
